# Test results from PubChem BioAssay AID624171 (National Center for Advancing Translational Sciences (NCATS), 2012).
# This is a selection; strong and weak results do not stand in their true shares. Some salts or complexes appear as unconnected parts, following the source record. Calls of active or inactive are those of the source. Calls come from the whole dose curve; as a rule, active = well fitted activation curve with a large enough effect; inconclusive = small, poorly fitted or top-dose-only effect; inactive = flat fitted curve, though single readings scatter.
# Assay: qHTS of Nrf2 Activators; note: % of control where 0% means no effect; nearly all actives have a fitted effect of over 65% in size
# Conditions: AREc32 ARE-luciferase reporter (MCF7-derived line), luminescence, 24 h; at 46.1 µM (top of the series) unless noted
# Excerpt: Many diseases have some form of oxidative stress injury and ties to inflammation, causing a host of problems for the patient. The antioxidant response element (ARE) plays an important role in alleviating the harmful effects of oxidative stress. The antioxidant response element (ARE) is a transcriptional regulatory element involved in the activation of genes coding for a number of antioxidant proteins and detoxifying enzymes. These enzymes work in concert to protect tissues from oxidative insults and chemical toxicities in human hepatocytes and immune cells. The protective effects of ARE activation are primarily triggered through Nrf2 (NF-E2-related factor) binding to and activating AREs. It is known that Nrf2 controls the production of over 250 antioxidant and detoxification proteins (Hu et al., 2006), thereby protecting tissues by increasing cellular antioxidant content and suppressing inflammatory signaling pathways. The transcription factor Nrf2 is a central link between oxidative chemicals, such as phenolic antioxidants and electrophilic compounds, and the activation of ARE. Nrf2 levels are constitutively low as a consequence of its interaction with Keap1, which targets its degradation (Zipper and Mulcahy, 2002). Electrophiles react with key cysteine residues in Keap1, releasing Nrf2 and allowing its translocation to the nucleus. Once within the nucleus, Nrf2 complexes with coactivators such as p300, and binds to the AREs to induce gene transcription of cytoprotective enzymes, resulting in the prevention of toxicity. Activation of Nrf2 protects tissues by increasing cellular antioxidant content and suppressing inflammatory signaling pathways. Identifying novel and potent Nrf2 activators by using the AREc32 cell line to detect ARE activation by small molecules will lead to the identification and development of probes to study protective pathways in multiple tissues. These specific probes are essential to study the ARE pathway, and eventually to determine whether this pathway does activate genes that could protect against a host of diseases, including cardiovascular diseases, obesity, diabetes, Alzheimer's, and Parkinson's disease.
# This project's aim is to identify novel and potent Nrf2 activators by using the AREc32 cell line to detect ARE activation by small molecules, which will lead to the identification and development of probes to study the ARE pathway.
# NIH Chemical Genomics Center [NCGC]
# NIH Molecular Libraries Probe Centers Network [MLPCN]
# Assay Submitter (PI): Curtis Klaassen, University of Kansas Medical Center
# 5 uL of 1000 cells/well of AREc32_Fluc cells are seeded into 1536-well plate in OPTI-MEM medium with 5% FBS. The plates are incubated overnight at 37 deg C with 5% CO2. Then through pin tool transfer, 23 nL of compounds are added to each well before a 24 hr incubation at 37 deg C with 5% CO2. After the addition of 2.5 uL of Steady-Glo. the plates are kept at RT for 30 min, before they are read on the ViewLux.
row,SMILES,activation
1,COc1ccc(NC2CCN(CCc3ccccc3)CC2)c(OC)c1,inactive: 0.349%
2,CCOC(=O)N1CCC(Nc2ccc(F)cc2)CC1,inactive: 0.286%
3,COc1ccccc1C(=O)NCC1(N2CCOCC2)CCCCC1,inactive: 0.497%
4,CCOc1ccc(C)cc1CN(CCCl)CCCl,inactive: 0.0585%
5,CC(C)(C)n1nnnc1C(c1ccccc1)N1CCC(n2c(=O)[nH]c3ccccc32)CC1 (stereo not drawn),inactive: 0.545%
6,O=C(NCC1(N2CCOCC2)CCCCC1)c1ccc(Cl)cc1,inactive: 0.0517%
7,O=C1CCN(Cc2ccccc2)CC1,inactive: 0.812%
8,O=c1[nH]c2ccccc2n1C1CCN(C(c2cccc3ccccc23)c2nnnn2C2CCCC2)CC1 (stereo not drawn),inactive: 0.204%
9,CCOC(=O)N1CCC(Nc2cccc(C)c2)CC1,inactive: 0.0108%
10,COc1cc(C(=O)NCC2(N(C)C)CCCCC2)ccc1OC(F)F,inactive: 1.61%
11,O=c1[nH]c2ccccc2n1C1CCN(C(c2ccccc2)c2nnnn2C2CCCCC2)CC1 (stereo not drawn),inactive: 0.447%
12,CSc1ccc(C(=O)NCC2(N3CCOCC3)CCCCC2)cc1,inactive: 0.0908%
13,CCOc1ccc(C(=O)NCC2(N3CCOCC3)CCCCC2)cc1,inactive: -1.24%
14,O=C(NCC1(N2CCCCC2)CCCCC1)c1cccc([N+](=O)[O-])c1,inactive: -1.32%
15,CCN1CCC(Nc2ccc(Cl)cc2)CC1,inactive: -0.111%
16,O=c1[nH]c2ccccc2n1C1CCN(C(c2ccccc2OC(F)(F)F)c2nnnn2C2CCCC2)CC1 (stereo not drawn),inactive: 0.436%
17,N#CC1(Nc2ccccc2)CCN(CCc2ccccc2)CC1,inactive: 2.28%
18,CC(C)(C)n1nnnc1C(c1ccccc1OC(F)(F)F)N1CCC(n2c(=O)[nH]c3ccccc32)CC1 (stereo not drawn),inactive: -3.29%
19,O=C(NCC1(N2CCCCC2)CCCCC1)c1ccc(OC(F)F)cc1,inactive: -0.232%
20,CN1CCN(CCOC(=O)C(O)(c2ccccc2)c2ccccc2)CC1,inactive: -0.469%
21,CC(C)c1ccc(C(=O)NCC2(N3CCOCC3)CCCCC2)cc1,inactive: -0.392%
22,COc1ccc(NC2CCN(C(=O)OC(C)(C)C)CC2)cc1,inactive: 2.86%
23,CCCCn1nnnc1C(c1cccc2ccccc12)N1CCC(n2c(=O)[nH]c3ccccc32)CC1 (stereo not drawn),inactive: -1.04%
24,COc1cc(C(=O)NCC2(N3CCCCC3)CCCCC2)ccc1OC(F)F,inactive: -0.137%
25,O=C(NCC1(N2CCOCC2)CCCCC1)c1cc(=O)[nH]c2ccccc12,inactive: 0.694%
26,CCCOc1cccc(C(=O)NCC2(N3CCOCC3)CCCCC2)c1,inactive: -0.447%

row,SMILES,activation
1,O=C(NCC1(N2CCCCC2)CCCCC1)c1cccc(C(F)(F)F)c1,inactive: 0.248%
2,O=[N+]([O-])c1cc([N+](=O)[O-])c(NCC2CCS(=O)(=O)C2)c([N+](=O)[O-])c1 (stereo not drawn),inactive: -0.575%
3,CCCCn1nnnc1C(c1ccnc2ccccc12)N1CCC(n2c(=O)[nH]c3ccccc32)CC1 (stereo not drawn),inactive: 0.171%
4,COc1cc(OC)c(C(=O)NCC2(N(C)C)CCCCC2)cc1OC,inactive: -0.766%
5,CCC(c1nnnn1C(C)(C)C)N1CCC(n2c(=O)[nH]c3ccccc32)CC1 (stereo not drawn),inactive: 0.0702%
6,O=C(NCC1(N2CCOCC2)CCCCC1)c1cc(F)c(F)cc1Cl,inactive: -0.212%
7,COc1ccc(CN(CCCl)CCCl)cc1Cl,inactive: -0.82% [at 9.22 µM]
8,O=[N+]([O-])c1cc([N+](=O)[O-])c(OC2CCCCC2O)c([N+](=O)[O-])c1 (stereo not drawn),inactive: 0.407%
9,CN(C)c1cccc(C(=O)NCC2(N3CCCCC3)CCCCC2)c1,inactive: 0.201%
10,CC(C)c1ccc(NC2CCN(C(=O)OC(C)(C)C)CC2)cc1,inactive: 2.54%
11,CCCCn1nnnc1C(c1ccccc1OC(F)(F)F)N1CCC(n2c(=O)[nH]c3ccccc32)CC1 (stereo not drawn),inactive: -3.27%
12,CCCCOc1ccccc1C(=O)NCC1(N2CCOCC2)CCCCC1,inactive: 7.36%
13,Cc1ccc(C(=O)NCC2(N(C)C)CCCCC2)o1,inactive: -0.495%
14,O=C(NCC1(N2CCOCC2)CCCCC1)c1ccccc1Br,inactive: -1.14%
15,CCCOc1ccc(C(=O)NCC2(N(C)C)CCCCC2)cc1OC,inactive: 1.87%
16,COc1ccc(C(c2nnnn2C2CCCC2)N2CCC(n3c(=O)[nH]c4ccccc43)CC2)cc1 (stereo not drawn),inactive: 5.28%
17,CN1CCC(Nc2cccc(F)c2)CC1,inactive: 1.72%
18,COc1ccc2c(c1O)-c1c(O)c(OC)cc3c1[C@H](C2)[N+](C)(C)CC3.O=[N+]([O-])c1cc([N+](=O)[O-])c([O-])c([N+](=O)[O-])c1[O-],inactive: -0.595%
19,O=C(NCC1(N2CCCCC2)CCCCC1)c1cncc(Br)c1,inactive: -0.468%
20,O=C(OC1CN2CCC1CC2)c1ccc([N+](=O)[O-])cc1 (stereo not drawn),inactive: -0.0527%
21,COc1ccc(C(=O)NCC2(N3CCOCC3)CCCCC2)cc1OC,inactive: 0.0245%
22,O=c1[nH]c2ccccc2n1C1CCN(C(c2ccnc3ccccc23)c2nnnn2C2CCCC2)CC1 (stereo not drawn),inactive: 5.15%
23,O=c1[nH]c2ccccc2n1C1CCN(C(c2cccs2)c2nnnn2C2CCCCC2)CC1 (stereo not drawn),inactive: 0.336%
24,O=C(NCC1(N2CCOCC2)CCCCC1)c1cc(Br)ccc1Cl,inactive: -0.699%
25,CCCCn1nnnc1C(c1ccccc1)N1CCC(n2c(=O)[nH]c3ccccc32)CC1 (stereo not drawn),inactive: -0.224%
26,COc1cc(C(=O)NCC2(N3CCOCC3)CCCCC2)cc(OC)c1C,inactive: 3.55%

row,SMILES,activation
1,CCCCn1nnnc1C(c1cccc(OC)c1OC)N1CCC(n2c(=O)[nH]c3ccccc32)CC1 (stereo not drawn),inactive: -1.11%
2,CCc1cc(C(=O)NCC2(N3CCCCC3)CCCCC2)sc1C,inactive: 3.96%
3,O=C(OC1CN2CCC1CC2)C1c2ccccc2C=Cc2ccccc21 (stereo not drawn),inactive: -0.343%
4,O=C(O)c1cccc(Nc2c([N+](=O)[O-])cc([N+](=O)[O-])cc2[N+](=O)[O-])c1,inactive: 9.01%
5,O=c1[nH]c2ccccc2n1C1CCN(C(c2cccs2)c2nnnn2C2CCCC2)CC1 (stereo not drawn),inactive: 0.982%
6,N/C(=N\O)c1c(N)no[n+]1[O-],inactive: 0.455%
7,CCOC(=O)N1CCC(Nc2ccc(C)cc2)CC1,inactive: -0.226%
8,COc1cccc(C(c2nnnn2C(C)(C)C)N2CCC(n3c(=O)[nH]c4ccccc43)CC2)c1OC (stereo not drawn),inactive: -0.119%
9,CCOC(=O)C(CC)C1=NC(C)(C)Cc2ccccc21.O=[N+]([O-])c1cc([N+](=O)[O-])c(O)c([N+](=O)[O-])c1 (stereo not drawn),inactive: 0.138%
10,O=C(NCC1(N2CCOCC2)CCCCC1)c1ccc([N+](=O)[O-])cc1,inactive: -1.44%
11,CC(C)(C)OC(=O)N1CCC(N(C(=O)c2ccccc2)c2ccc(Cl)cc2)CC1,inactive: 3.38%
12,N#Cc1ccc(C(=O)NCC2(N3CCCCC3)CCCCC2)cc1,inactive: 0.394%
13,O=C(NCC1(N2CCOCC2)CCCCC1)c1ccccc1[N+](=O)[O-],inactive: -0.211%
14,CC(C)(C)n1nnnc1C(c1cccc2ccccc12)N1CCC(n2c(=O)[nH]c3ccccc32)CC1 (stereo not drawn),inactive: -1.73%
15,c1ccc(CN2CCC(Nc3ccccc3)CC2)cc1,inactive: 2.79%
16,Cc1cc(N(CCCl)CCCl)ccc1C=O,inactive: 4.06%
17,O=C(NCC1(N2CCOCC2)CCCCC1)c1ccccc1,inactive: -0.91%
18,O=c1[nH]c2ccccc2n1C1CCN(C(c2ccccc2)c2nnnn2C2CCCC2)CC1 (stereo not drawn),inactive: 3.94%
19,CCCN1CCC(Nc2cc(OC)cc(OC)c2)CC1,inactive: 3.07%
20,CN(C)C1(CNC(=O)c2cccc(C#N)c2)CCCCC1,inactive: -0.699%
21,Cc1ccc(NC2(C#N)CCN(Cc3ccccc3)CC2)cc1,inactive: -0.713%
22,Cc1ccc(C(=O)NCC2(N3CCCCC3)CCCCC2)o1,inactive: -0.662%
23,Fc1ccccc1NC1CCN(Cc2ccccc2)CC1,inactive: 0.301%
24,COc1cc(OC)cc(C(=O)NCC2(N3CCCCC3)CCCCC2)c1,inactive: 0.921%
25,O=c1[nH]c2ccccc2n1C1CCN(C(c2ccnc3ccccc23)c2nnnn2C2CCCCC2)CC1 (stereo not drawn),inactive: -0.778%
26,COc1cccc(C(c2nnnn2C2CCCCC2)N2CCC(n3c(=O)[nH]c4ccccc43)CC2)c1OC (stereo not drawn),inactive: -0.299%

row,SMILES,activation
1,CN(C)C1(CNC(=O)c2ccc(C(C)(C)C)cc2)CCCCC1,inactive: 3.54%
2,CC(=O)N(c1ccccc1)C1CCNCC1,inactive: 0.0468%
3,CCC(c1nnnn1C1CCCCC1)N1CCC(n2c(=O)[nH]c3ccccc32)CC1 (stereo not drawn),inactive: 0.43%
4,O=C(NCC1(N2CCCCC2)CCCCC1)c1ccco1,inactive: -1.22%
5,CC(C)(C)c1ccc(C(=O)NCC2(N3CCOCC3)CCCCC2)cc1,inactive: 3.48%
6,CN(C)c1ccc(C(=O)NCC2(N3CCCCC3)CCCCC2)cc1,inactive: -0.465%
7,Cn1c(=O)[nH]cc(N(CCCl)CCCl)c1=O,inactive: 0.272%
8,Cc1ccccc1C(=O)NCC1(N(C)C)CCCCC1,inactive: -0.884%
9,Cc1ccccc1NC1(C#N)CCN(Cc2ccccc2)CC1,inactive: -0.737%
10,CCN1CCC(Nc2cccc(F)c2)CC1,inactive: -0.0738%
11,COc1ccc(C(c2nnnn2C2CCCCC2)N2CCC(n3c(=O)[nH]c4ccccc43)CC2)cc1 (stereo not drawn),inactive: -0.657%
12,CC(C)(C)n1nnnc1C(c1ccnc2ccccc12)N1CCC(n2c(=O)[nH]c3ccccc32)CC1 (stereo not drawn),inactive: 3.04%
13,O=c1[nH]c2ccccc2n1C1CCN(C(c2cc3ccccc3o2)c2nnnn2C2CCCC2)CC1 (stereo not drawn),inactive: 0.829%
14,CCCOc1ccc(C(=O)NCC2(N(C)C)CCCCC2)cc1,inactive: 0.261%
15,CC(C)(C)OC(=O)N1CCC(Nc2ccccc2)CC1,inactive: -0.0434%
16,O=C(O)C1(Nc2ccccc2)CCN(Cc2ccccc2)CC1,inactive: -0.206%
17,NN(c1ccccc1)C1CCN(CCc2ccccc2)CC1,inactive: 1.2%
18,CCOc1ncccc1C(=O)NCC1(N2CCOCC2)CCCCC1,inactive: -0.625%
19,CN1CCC(Nc2ccc(F)c(Cl)c2)CC1,inactive: -0.236%
20,CN1CCC(Nc2ccc(Cl)cc2)CC1,inactive: -0.0717%
21,CCC(CO)(C(=O)OC1CN2CCC1CC2)c1ccccc1 (stereo not drawn),inactive: -0.59%
22,COc1cccc(C(c2nnnn2C2CCCC2)N2CCC(n3c(=O)[nH]c4ccccc43)CC2)c1OC (stereo not drawn),inactive: 6.06%
23,COc1cc(OC)cc(C(=O)NCC2(N3CCOCC3)CCCCC2)c1,inactive: -0.23%
24,COc1cc(C(=O)NCC2(N3CCOCC3)CCCCC2)cc(OC)c1OC,inactive: -0.139%
25,COc1cccc(C(=O)N(c2cc(C)cc(C)c2)C2CCN(C(=O)OC(C)(C)C)CC2)c1,inactive: -0.483%
